Values of other authors in US20240228572A1 (i2o Therapeutics, Inc., priority 2020, published 2024).

Conditions: in humans; cited from earlier work

CC[C@H](C)[C@H](NC(=O)[C@@H]1CCCN1C(=O)CNC(=O)[C@H](Cc1ccccc1)NC(=O)[C@H](CC(N)=O)NC(=O)[C@H](CC(N)=O)NC(=O)[C@H](CO)NC(=O)[C@H](CO)NC(=O)[C@H](Cc1c[nH]cn1)NC(=O)[C@@H](NC(=O)[C@H](CC(C)C)NC(=O)[C@H](Cc1ccccc1)NC(=O)[C@H](CC(N)=O)NC(=O)[C@H](C)NC(=O)[C@H](CC(C)C)NC(=O)[C@H](CCCNC(=N)N)NC(=O)[C@H](CCC(N)=O)NC(=O)[C@@H](NC(=O)[C@H](C)NC(=O)[C@@H]1CSSC[C@H](NC(=O)[C@@H](N)CCCCN)C(=O)N[C@@H](CC(N)=O)C(=O)N[C@@H]([C@@H](C)O)C(=O)N[C@@H](C)C(=O)N[C@@H]([C@@H](C)O)C(=O)N1)[C@@H](C)O)C(C)C)C(=O)N[C@@H](CC(C)C)C(=O)N1CCC[C@H]1C(=O)N1CCC[C@H]1C(=O)N[C@H](C(=O)N[C@@H](CC(N)=O)C(=O)N[C@H](C(=O)NCC(=O)N[C@@H](CO)C(=O)N[C@@H](CC(N)=O)C(=O)N[C@H](C(=O)N[C@@H](Cc1ccc(O)cc1)C(N)=O)[C@@H](C)O)C(C)C)[C@@H](C)O [pramlintide]
half-life: approximately 48 minutes
